Target: T1, Polyunsaturated fatty acid 5-lipoxygenase (Homo sapiens, UniProt P09917)
T1 sequence (P09917 whole entry): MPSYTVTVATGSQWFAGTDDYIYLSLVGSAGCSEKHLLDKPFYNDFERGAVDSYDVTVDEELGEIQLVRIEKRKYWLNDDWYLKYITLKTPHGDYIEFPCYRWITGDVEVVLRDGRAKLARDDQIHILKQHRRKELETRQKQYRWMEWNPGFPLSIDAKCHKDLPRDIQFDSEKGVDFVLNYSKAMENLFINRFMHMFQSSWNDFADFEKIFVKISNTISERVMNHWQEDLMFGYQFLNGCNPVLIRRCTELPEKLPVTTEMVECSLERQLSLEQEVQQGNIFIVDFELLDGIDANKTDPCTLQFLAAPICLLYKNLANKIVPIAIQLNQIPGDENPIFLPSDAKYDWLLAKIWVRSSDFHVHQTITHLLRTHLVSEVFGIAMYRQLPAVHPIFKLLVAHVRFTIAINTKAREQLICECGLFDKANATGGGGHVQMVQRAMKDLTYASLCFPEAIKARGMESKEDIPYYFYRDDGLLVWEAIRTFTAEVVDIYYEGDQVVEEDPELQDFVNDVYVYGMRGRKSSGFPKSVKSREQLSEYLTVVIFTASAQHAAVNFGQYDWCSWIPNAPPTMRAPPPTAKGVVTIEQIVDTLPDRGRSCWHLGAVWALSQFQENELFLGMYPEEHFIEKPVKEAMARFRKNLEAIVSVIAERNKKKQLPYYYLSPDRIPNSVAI
Assay: For determination of the activity of 5-LO in 40000g supernatant (S40), aliquots of the supernatants were added to reaction mix, and were preincubated with the test compounds before arachidonic acid was added to start 5-LO product formation. Formed 5-LO metabolites were extracted and analyzed by HPLC. 5-LO product includes LTB4 and its all-trans isomers, and 5(S)-hydro(pero)xy-6-trans- 8,11,14-cis-eicosatetraenoic acid. IC50s are expressed as mean +/- SE, obtained from measurements at 4-5 different concentrations of test compounds, and determined using Graphpad Instat (Graphpad Software Inc., San Diego, CA). EC50/IC50 values were obtained from product formation in intact neutrophils.

EC50 [µM]	EC50 (pH 7.4, 37 °C) [µM]	Compound
> 30	–	CCOC(=O)c1c(Cc2cccc(Cl)c2)n(C)c2c1cc(OC)c1ccccc12 [1H-benzo[g]indole-3-carboxylate, 32]
> 30	–	CCOC(=O)c1c(Cc2cccc(Cl)c2)[nH]c2c1cc(-c1ccccc1)c1ccccc12 [1H-benzo[g]indole-3-carboxylate, 36]
–	7.9	COC(=O)c1c(Nc2cccc(F)c2)[nH]c2ccccc12 [2-substituted indole-3-carboxylate, 27d]
–	> 30	C=CCNc1[nH]c2ccccc2c1C(=O)OC [2-substituted indole-3-carboxylate, 27g]
–	12.5	C=CCN(CC=C)c1[nH]c2ccccc2c1C(=O)OC [2-substituted indole-3-carboxylate, 27h]
–	0.34	CCOC(=O)c1c(Cc2cccc(F)c2)[nH]c2c1cc(O)c1ccccc12 [5-hydroxy-1H-benzo[g]indole-3-carboxylate, 11d]
–	1.7	CCOC(=O)c1c(Cc2ccc(C(F)(F)F)cc2)[nH]c2c1cc(O)c1ccccc12 [5-hydroxy-1H-benzo[g]indole-3-carboxylate, 11j]
0.49	–	CCOC(=O)c1c(CCc2cccc(Cl)c2)[nH]c2c1cc(O)c1ccccc12 [5-hydroxy-1H-benzo[g]indole-3-carboxylate, 11m]
2.8	–	CCOC(=O)c1c(CCc2ccc(Cl)cc2)[nH]c2c1cc(O)c1ccccc12 [5-hydroxy-1H-benzo[g]indole-3-carboxylate, 11n]
2.8	–	CCOC(=O)c1c(Cc2cccc(Cl)c2)[nH]c2cc(-c3ccc(-c4ccccc4)cc3)c(O)cc12 [5-hydroxy-1H-indole-3-carboxylate, 22]

Compound	EC50 [µM]	EC50 (pH 7.4, 37 °C) [µM]
CCOC(=O)c1c(Cc2ccc(Cl)cc2)n(Cc2ccccc2)c2c1cc(O)c1ccccc12 [5-hydroxy-1H-benzo[g]indole-3-carboxylate, 11p]	1.8	–

— BindingDB's records for doi:10.1021/jm900212y (Friedrich Alexander University Erlangen, 2009)
